Measurements as given in patent publication US12252481B2, “Anti-viral compounds” (Aligos Therapeutics, Inc., priority 2021, dated 2025).
pIC50: −log10 of the molar value.

Protein sequences, listed by entry. Tags and fused reporters are not part of them. Residues count along the entry.
UniProt P03303, 1538-1719: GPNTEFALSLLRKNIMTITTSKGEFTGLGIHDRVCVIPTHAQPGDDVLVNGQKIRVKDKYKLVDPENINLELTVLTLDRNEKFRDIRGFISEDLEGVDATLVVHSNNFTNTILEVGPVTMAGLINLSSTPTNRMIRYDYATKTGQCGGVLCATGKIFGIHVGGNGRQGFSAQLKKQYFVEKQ

How the values were obtained:
HRV3C = molecular target: T1, HRV3C (Human rhinovirus 14, UniProt P03303); experiment: biochemical; design: species or system HRV
T1 construct: 3CLpro and HRV3C was added using a Multidrop Combi

SARS-Cov-2 3CLpro = molecular target: T2, SARS-Cov-2 3CLpro (Severe acute respiratory syndrome coronavirus 2, UniProt P0DTD1); experiment: biochemical
T2 construct: 3CLpro and HRV3C was added using a Multidrop Combi

Molecule `N#C[C@H](C[C@@H]1CCNC1=O)NC(=O)[C@@H]1[C@@H]2[C@H](CN1C(=O)[C@@H]1C[C@]13CCc1ccccc13)[C@@H]1C=C[C@H]2C1` (single isomer, unassigned) [Example 38, (1S,3aR,4S,7R,7aS)-N-((S)-1-cyano-2-((S)-2-oxopyrrolidin-3-yl)ethyl)-2-((1R*,2R*)-2′,3′-dihydrospiro[cyclopropane-1,1′-indene]-2-carbonyl)-2,3,3a,4,7,7a-hexahydro-1H-4,7-methanoisoindole-1-carboxamide] has a pIC50 (HRV3C) of less than 5.00 and a pIC50 (SARS-Cov-2 3CLpro) of 6.70 to 7.70.
